Test results published in patent US20250188095A1, “DISUBSTITUTED OCTAHYDROPYRROLO[3,4-c]PYRROLYL METHYL KETONE DERIVATIVE AND USE THEREOF” (JIANGSU NHWA PHARMACEUTICAL CO., LTD, priority 2022, published 2025).

Sequences of proteins named here, by UniProt entry; tags and fusion partners are left off.
UniProt O43613, whole entry: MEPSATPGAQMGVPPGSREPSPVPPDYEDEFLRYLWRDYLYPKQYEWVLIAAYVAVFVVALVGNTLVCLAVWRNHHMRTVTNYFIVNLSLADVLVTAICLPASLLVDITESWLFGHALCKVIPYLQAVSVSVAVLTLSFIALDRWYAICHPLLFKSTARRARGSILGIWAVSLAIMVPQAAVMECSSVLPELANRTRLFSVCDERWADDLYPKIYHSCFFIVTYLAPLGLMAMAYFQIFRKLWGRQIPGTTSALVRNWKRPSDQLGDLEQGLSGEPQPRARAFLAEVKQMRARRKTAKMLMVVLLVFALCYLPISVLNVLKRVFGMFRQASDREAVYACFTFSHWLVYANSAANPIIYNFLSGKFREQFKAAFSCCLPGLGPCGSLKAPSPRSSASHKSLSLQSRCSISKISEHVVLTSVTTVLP
UniProt O43614, whole entry: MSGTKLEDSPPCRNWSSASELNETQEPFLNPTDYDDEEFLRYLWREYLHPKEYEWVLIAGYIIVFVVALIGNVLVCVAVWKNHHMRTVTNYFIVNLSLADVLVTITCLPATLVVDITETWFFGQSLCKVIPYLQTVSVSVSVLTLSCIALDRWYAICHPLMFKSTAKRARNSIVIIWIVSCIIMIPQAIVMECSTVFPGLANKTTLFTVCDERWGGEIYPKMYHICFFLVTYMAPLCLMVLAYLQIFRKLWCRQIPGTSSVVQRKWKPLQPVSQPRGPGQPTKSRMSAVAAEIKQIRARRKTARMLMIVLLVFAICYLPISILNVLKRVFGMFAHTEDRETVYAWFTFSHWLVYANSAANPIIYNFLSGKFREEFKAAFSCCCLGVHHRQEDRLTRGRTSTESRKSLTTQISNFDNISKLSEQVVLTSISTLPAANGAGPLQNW

Columns and labels:
ICR mice [1] = experiment: Pentobarbital sodium synergistic sleep test; conditions: mouse, in vivo
Method: Male ICR mice aged 6-9 weeks were randomly divided into groups based on body weight balance, with 8 mice per group, and the groups were given blank vehicle and 3, 10, and 30 mg/kg of the test compound, respectively. After 5 min, pentobarbital sodium was intraperitoneally injected at 45 mg/kg. The moments when righting reflexes disappeared and the moments when righting reflexes reappeared in mice were recorded. Sleep latency=moment when righting reflex disappeared−moment when pentobarbital sodium was administered, and sleep duration=moment when righting reflex reappeared−moment when righting reflex disappeared. […] Experimental data were expressed as mean±standard deviation (Mean±SD). One-way ANOVA analysis was performed using SPSS 21.0 statistical software, and pairwise comparisons were performed using Dunnett's test, with p<0.05 represented by *.

ICR mice [2] = experiment: Autonomous activities of mice; conditions: mouse, in vivo
Method: Male ICR mice aged 6-9 weeks were randomly divided into groups based on body weight balance, with 8 or 9 mice per group, and the groups were given blank vehicle and 10, 30, and 100 mg/kg of the test compound, respectively. The animals were placed in a test chamber immediately after administration, and the activity distances of the animals within 60 min were recorded and analyzed with Top Scan Version 3.0. […] Experimental data were expressed as mean±standard deviation (Mean±SD). One-way ANOVA analysis was performed using SPSS 21.0 statistical software, and pairwise comparisons were performed using Dunnett's test, with p<0.05 represented by *.

OX1 receptor = OX1 receptor (Homo sapiens (Human), UniProt O43613); experiment: In vitro activity test (Cisbio IP-one, CHO-K1-OX1 cells, antagonism of EC80 Orexin A); assay type: cell-based
Method: (§1) (1) Preparation of a reaction buffer (1×Stimulation buffer) required for the experiment: The 5×Stimulation buffer and ddH2O in the Cisbio IP-one kit were diluted in a ratio of 1:4 for later use.
(§2) (2) Compound preparation: The compound was diluted with DMSO to obtain a 5 mM stock solution, followed by a 3.16-fold dilution to obtain 10 gradients, and then the prepared compound was diluted with the Stimulation buffer to the corresponding concentrations (4×) for later use.
(§3) (3) Cell preparation: CHO-K1-OX1 and CHO-K1-OX2 cells on the culture dish were digested with trypsin, and the cells were washed off with culture medium and collected into 5 mL centrifuge tubes. The cells were centrifuged at 1000 rpm for 5 min, and the supernatant was discarded. […] The cells were resuspended in 1×Stimulation buffer and counted using a Countstar cell counter, and the cell density was adjusted to 1.71×10^6 cells/mL for later use. […]
(§4) (10) Experimental readings: The plate was read on Envision, readings from the 665 nm and 615 nm channels were taken, and the ratio of 665 nm/615 nm readings was calculated.
(§5) Based on the antagonistic effect values of the compound sample at different concentration test points, antagonistic curves of the compound sample against the orexin receptors were fitted using GraphPad Prism software, and the IC50 was calculated.

OX2 receptor = OX2 receptor (Homo sapiens (Human), UniProt O43614); experiment: In vitro activity test (Cisbio IP-one, CHO-K1-OX2 cells, antagonism of EC80 agonist); assay type: cell-based
Method: as §1, §2, §3, §4, §5

Cc1cc(C)nc(N2CC3CN(C(=O)c4c(F)cccc4-n4nccn4)CC3C2)n1 (centres unmarked) [Seltorexant, reference compound]
Sleep duration (ICR mice [1]): 60.41 ± 11.91 min | Sleep latency (ICR mice [1]): 5.05 ± 2.67 min | Movement distance (m) (ICR mice [2]): 62.39 ± 23.31 m and 36.95 ± 9.75 m and 32.68 ± 13.49 m | IC50 (OX1 receptor): 300 to 1000 nM | IC50 (OX2 receptor): < 100 nM

Where “and” joins values, the source holds several entries; their conditions need not be identical. Identical values can stand only once.
